Source: patent US7629318B2, “Immunosuppressant compounds, methods and uses related thereto” (priority 2002, dated 2009)
Several values for one entry are separate records, joined by “and”; a condition that tells them apart may be missing. Equal entries are not always repeated.

System: IL-2 secretion from the hybridoma cell line T-Hyb 1
Conditions: for Immunsupressive assays Thyb1 (Max) % Inhibition: Thyb1, maximal inhibition; for IC50: read-out: Immunsupressive assays Thyb1 (IC50), Thyb1; for immunosuppressive properties as measured by IL-2 secretion, versus Arg equivalent: dose-response curve, compared to the Arg-containing peptide

SMILES | Immunsupressive assays Thyb1 (Max) % Inhibition | IC50 [µM] | immunosuppressive properties as measured by IL-2 secretion, versus Arg equivalent | immunosuppressive / immunomodulatory properties as measured by IL-2 secretion (T-Hyb 1 cells, FIG. 13 compared to a DMSO control)
CCCC[C@H](NC(=O)[C@@H]1Cc2ccccc2CN1C(=O)[C@@H](NC(=O)[C@H](CC1CCCCC1)NC(C)=O)C1CCN(C(=N)N)CC1)C(=O)N(CCO)Cc1ccccc1 [Compound P78, Ac-Cha-Gpg-Tic-Nle-N(Bn)CH2CH2OH] | 50% | 118 |  | 
CSCC[C@H](NC(=O)C1c2ccccc2CN1C(=O)[C@@H](NC(=O)[C@H](CC1CCCCC1)NC(C)=O)C1CCN(C(=N)N)CC1)C(=O)N1CC[C@H](c2ccccc2)[C@H]1C(=O)N[C@@H](CO)c1nc(C(=O)N(C)C)c(C(C)C)o1 (stereo partly drawn) [Compound P41-1, Ac-Cha-Gpg-Disc-Met-βPhPro-[S(oxaz)L]-NMe2] | 83% | 47 | improved immunosuppressive properties | 
CC(=O)N[C@@H](CC1CCCCC1)C(=O)N[C@H](C(=O)N1Cc2ccccc2C[C@H]1C(=O)N[C@@H](CC[S+](C)[O-])C(=O)N1CC[C@H](c2ccccc2)[C@H]1C(=O)N[C@@H](CO)c1nc(C(=O)N(C)C)c(C(C)C)o1)C1CCN(C(=N)N)CC1 (stereo partly drawn) [Compound P47, Ac-Cha-Gpg-Tic-Met(O)-βPhPro-[S(oxaz)L]-NMe2] | 83% | 62 |  | 
CSCC[C@H](NC(=O)[C@@H]1Cc2ccccc2CN1C(=O)[C@@H](NC(=O)[C@H](CC1CCCCC1)NC(C)=O)C1CCN(C(=N)N)CC1)C(=O)N(CCOCCO)Cc1ccccc1 [Compound P102, Ac-Cha-Gpg-Tic-Met-N(Bn)CH2CH2OCH2CH2OH] | 76% | 81 |  | 
CCCC[C@H](NC(=O)[C@@H]1Cc2ccccc2CN1C(=O)[C@@H](NC(=O)[C@H](CC1CCCCC1)NC(C)=O)C1CCN(C(=N)N)CC1)C(=O)N(CCOCCO)Cc1ccccc1 [Compound P101, Ac-Cha-Gpg-Tic-Nle-N(Bn)CH2CH2OCH2CH2OH] | 88% | 57 |  | 
CCCC[C@H](NC(=O)[C@@H]1Cc2ccccc2CN1C(=O)[C@@H](NC(=O)[C@H](CC1CCCCC1)NC(C)=O)C1CCN(C(=N)N)CC1)C(=O)NCCc1ccccc1 [Compound P69, Ac-Cha-Gpg-Tic-Nle-N(H)CH2CH2Ph] | 96% | 42 | improved immunosuppressive properties | 
CCCC[C@H](NC(=O)[C@@H]1Cc2ccccc2CN1C(=O)[C@H](CCCNC(=N)N)NC(=O)[C@H](CC1CCCCC1)NC(C)=O)C(=O)N(C)CCc1ccccc1 [Compound P83, Ac-Cha-Arg-Tic-Nle-N(Me)CH2CH2Ph] | 100% | 46 |  | 
CSCC[C@H](NC(=O)[C@@H]1Cc2ccccc2CN1C(=O)[C@H](CCCNC(=N)N)NC(=O)[C@H](CC1CCCCC1)NC(C)=O)C(N)=O [Compound P1, Ac-Cha-Arg-Tic-Met-NH2] |  | > 200 |  | 
CCCC[C@H](NC(=O)C1c2ccccc2CN1C(=O)[C@H](CCCNC(=N)N)NC(=O)[C@H](CC1CCCCC1)NC(C)=O)C(=O)N(C)Cc1ccccc1 (stereo partly drawn) [Compound P72-1, Ac-Cha-Arg-Disc-Nle-N(Me)Bn] | 105% | 88 |  | 
CC(=O)N[C@@H](CC1CCCCC1)C(=O)N[C@@H](CCCNC(=N)N)C(=O)N1Cc2ccccc2C[C@H]1C(=O)N[C@@H](CC[S+](C)[O-])C(=O)N1CC[C@H](c2ccccc2)[C@H]1C(=O)N[C@@H](CO)c1nc(C(=O)N(C)C)c(C(C)C)o1 (stereo partly drawn) [Compound P43, Ac-Cha-Arg-Tic-Met(O)-βPhPro-[S(oxaz)L]-NMe2] | 84% | 54 |  | 
CCCC[C@H](NC(=O)C1c2ccccc2CN1C(=O)[C@@H](NC(=O)[C@H](CC1CCCCC1)NC(C)=O)C1CCN(C(=N)N)CC1)C(=O)N(C)Cc1ccccc1 (single isomer, unassigned) [Compound P76-1, Ac-Cha-Gpg-Disc-Nle-N(Me)Bn] | 106% | 64 |  | 
CCCC[C@H](NC(=O)[C@@H]1Cc2ccccc2CN1C(=O)[C@H](CCCNC(=N)N)NC(=O)[C@H](CC1CCCCC1)NC(C)=O)C(=O)NCCc1ccccc1 [Compound P82, Ac-Cha-Arg-Tic-Nle-N(H)CH2CH2Ph] | 100% | 78 |  | 
CCCC[C@H](NC(=O)[C@@H]1Cc2ccccc2CN1C(=O)[C@@H](NC(=O)[C@H](CC1CCCCC1)NC(C)=O)C1CCN(C(=N)N)CC1)C(=O)N1CCc2ccccc2C1 [Compound P77, Ac-Cha-Gpg-Tic-Nle-tetrahydroisoquinoline] | 42% | 73 |  | 
CCCC[C@H](NC(=O)[C@@H]1Cc2ccccc2CN1C(=O)[C@@H](NC(=O)[C@H](CC1CCCCC1)NC(C)=O)C1CCN(C(=N)N)CC1)C(=O)N1CC[C@H](c2ccccc2)[C@H]1C(=O)N[C@@H](CO)c1nc(C(=O)N(C)C)c(C(C)C)o1 [Compound P53, Ac-Cha-Gpg-Tic-Nle-βPhPro-[S(oxaz)L]-NMe2] | 99% | 25 |  | immunosuppressive properties
CCCC[C@H](NC(=O)[C@@H]1Cc2ccccc2CN1C(=O)[C@H](CCCNC(=N)N)NC(=O)[C@H](CC1CCCCC1)NC(C)=O)C(=O)N(CCOCCO)Cc1ccccc1 [Compound P98, Ac-Cha-Arg-Tic-Nle-N(Bn)CH2CH2OCH2CH2OH] | 66% and 86% | 79 |  | 
CSCC[C@H](NC(=O)[C@@H]1Cc2ccccc2CN1C(=O)[C@@H](NC(=O)[C@H](CC1CCCCC1)NC(C)=O)C1CCN(C(=N)N)CC1)C(=O)N1CC[C@H](c2ccccc2)[C@H]1C(=O)N[C@@H](CO)c1nc(C(=O)N(C)C)c(C(C)C)o1 [Compound P60, Ac-Cha-Gpg-Tic-Met-βPhPro-[S(oxaz)L]-NMe2] | 47% | 30 |  | 
CCCC[C@H](NC(=O)[C@@H]1Cc2ccccc2CN1C(=O)[C@@H](NC(=O)[C@H](CC1CCCCC1)NC(C)=O)C1CCN(C(=N)N)CC1)C(=O)NCc1ccccc1 [Compound P68, Ac-Cha-Gpg-Tic-Nle-N(H)Bn] | 106% | 39 |  | 
CSCC[C@H](NC(=O)[C@@H]1Cc2ccccc2CN1C(=O)[C@H](CCCNC(=N)N)NC(=O)[C@H](CC1CCCCC1)NC(C)=O)C(=O)N1CC[C@H](c2ccccc2)[C@H]1C(N)=O [Compound P31, Ac-Cha-Arg-Tic-Met-βPhPro-NH2] | 64% | 55 |  | 
CCCC[C@H](NC(=O)[C@@H]1Cc2ccccc2CN1C(=O)[C@@H](NC(=O)[C@H](CC1CCCCC1)NC(C)=O)C1CCN(C(=N)N)CC1)C(=O)NCCOCCO [Compound P70, Ac-Cha-Gpg-Tic-Nle-N(H)CH2CH2OCH2CH2OH] | 41% | 83 |  | 
CCCC[C@H](NC(=O)[C@@H]1Cc2ccccc2CN1C(=O)[C@@H](NC(=O)[C@H](CC1CCCCC1)NC(C)=O)C1CCN(C(=N)N)CC1)C(=O)N(C)Cc1ccccc1 [Compound P74, Ac-Cha-Gpg-Tic-Nle-N(Me)Bn] | 103% | 47 |  | 
CSCC[C@H](NC(=O)[C@@H]1Cc2ccccc2CN1C(=O)[C@@H](NC(=O)[C@H](CC1CCCCC1)NC(C)=O)C1CCN(C(=N)N)CC1)C(N)=O [Compound P67, Ac-Cha-Gpg-Tic-Met-NH2] | 33% | 115 |  | 
CSCC[C@H](NC(=O)[C@@H]1Cc2ccccc2CN1C(=O)[C@H](CCCNC(=N)N)NC(=O)[C@H](CC1CCCCC1)NC(C)=O)C(=O)N(CCO)CCc1ccccc1 [Compound P85, Ac-Cha-Arg-Tic-Met-N(CH2CH2OH)CH2CH2Ph] | 74% | 100 |  | 
CSCC[C@H](NC(=O)C1c2ccccc2CN1C(=O)[C@H](CCCNC(=N)N)NC(=O)[C@H](CC1CCCCC1)NC(C)=O)C(=O)N1CC[C@H](c2ccccc2)[C@H]1C(=O)N[C@@H](CO)c1nc(C(=O)N(C)C)c(C(C)C)o1 (stereo partly drawn) [Compound P40-1, Ac-Cha-Arg-Disc-Met-βPhPro-[S(oxaz)L]NMe2] | 81% | 59 |  | 
CSCC[C@H](NC(=O)C1c2ccccc2CN1C(=O)[C@@H](NC(=O)[C@H](CC1CCCCC1)NC(C)=O)C1CCN(C(=N)N)CC1)C(N)=O (stereo partly drawn) [Compound P66-1, Ac-Cha-Gpg-Disc-Met-NH2] | 24% | 100 |  | 
CSCC[C@H](NC(=O)[C@@H]1Cc2ccccc2CN1C(=O)[C@@H](NC(=O)[C@H](CC1CCCCC1)NC(C)=O)C1CCN(C(=N)N)CC1)C(=O)N1CC[C@H](c2ccccc2)[C@H]1C(N)=O [Compound P80, Ac-Cha-Gpg-Tic-Met-βPhProNH2] | 100% | 13 |  | 
CCCC[C@H](NC(=O)[C@@H]1Cc2ccccc2CN1C(=O)[C@H](CCCNC(=N)N)NC(=O)[C@H](CC1CCCCC1)NC(C)=O)C(=O)N1CC[C@H](c2ccccc2)[C@H]1C(=O)N[C@@H](CO)c1nc(C(=O)N(C)C)c(C(C)C)o1 [Compound P51, Ac-Cha-Arg-Tic-Nle-βPhPro-[S(oxaz)L]-NMe2] | 88% | 62 |  | 
CCCC[C@H](NC(=O)[C@@H]1Cc2ccccc2CN1C(=O)[C@H](CCCNC(=N)N)NC(=O)[C@H](CC1CCCCC1)NC(C)=O)C(=O)N(CCO)CCc1ccccc1 [Compound P81, Ac-Cha-Arg-Tic-Nle-N(CH2CH2OH)CH2CH2Ph] | 96% | 39 |  | 
